Patent publication US20050074834A1 (priority 2001, published 2005)

Columns and labels:
[1] = tested on: chromatophores; assay: cells; details: read-out: Threshold concentration PPM
[2] = tested on: melanophores

| Compound | minimal effective concentration [1] | effect on melanophores [2] |
| --- | --- | --- |
| N=C(N)NCCN1CCCCCCC1 [Guanethidine] | 100 to 1000 µg/mL | – |
| CN(C)CCCN1c2ccccc2CCc2ccccc21 [Imipramine] | 1 to 100 µg/mL | – |
| COc1ccc(CCN(C)CCCC(C#N)(c2ccc(OC)c(OC)c2)C(C)C)cc1OC (stereo not drawn) [Verapamil] | – | does not alter melanophores |
